Assay results as given in ChEMBL document CHEMBL1132460, “Affinity and selectivity of matrix metalloproteinase inhibitors: a chemometrical study from the perspective of ligands and proteins” (J Med Chem, 1999).

Chains of the proteins cited; added tags and fusions are not shown. Lines headed by an entry give the natural chain unless they say otherwise; changes in a name come on top.
UniProt P22894: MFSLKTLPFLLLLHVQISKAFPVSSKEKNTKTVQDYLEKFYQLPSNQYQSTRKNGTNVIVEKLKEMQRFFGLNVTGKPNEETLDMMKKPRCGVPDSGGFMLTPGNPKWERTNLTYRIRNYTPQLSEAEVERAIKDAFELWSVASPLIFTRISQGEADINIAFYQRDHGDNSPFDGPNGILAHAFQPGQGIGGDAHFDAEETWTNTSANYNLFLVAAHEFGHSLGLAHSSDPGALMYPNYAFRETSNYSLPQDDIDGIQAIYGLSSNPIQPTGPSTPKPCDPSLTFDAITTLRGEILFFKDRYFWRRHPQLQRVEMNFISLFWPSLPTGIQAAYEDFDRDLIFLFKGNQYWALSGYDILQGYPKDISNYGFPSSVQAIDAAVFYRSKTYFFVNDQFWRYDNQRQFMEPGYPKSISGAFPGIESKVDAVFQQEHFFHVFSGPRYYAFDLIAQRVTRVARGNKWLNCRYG

Target: Neutrophil collagenase (Homo sapiens, UniProt P22894)
Assay: Inhibitory concentration against human matrix metalloprotease-8 (human neutrophil collagenase, MMP-8)

IC50: 8 nM
Structure (SMILES): O=C(NO)[C@H]1Cc2c([nH]c3ccccc23)CN1S(=O)(=O)c1ccc(Oc2ccccc2)cc1
